{"source": "paper PMC8958505", "about": "“Discovery of Potential Neuroprotective Agents against Paclitaxel-Induced Peripheral Neuropathy” (Journal of Medicinal Chemistry, 2022)", "key": {"[1]": {"molecular_target": "Leukotriene, Cysteinyl CysLT1 (Homo sapiens, UniProt Q9Y271)", "assay": "LeadProfilingScreen: Leukotriene, Cysteinyl CysLT1", "format": "binding"}, "Interleukin IL-1 R1": {"molecular_target": "Interleukin IL-1 R1 (Homo sapiens, UniProt P14778)", "assay": "LeadProfilingScreen: Interleukin IL-1 R1", "format": "binding"}, "Imidazoline I2, Central": {"system": "Imidazoline I2, Central", "assay": "LeadProfilingScreen: Imidazoline I2, Central", "format": "binding, rat", "settings": "10 μM"}, "Dopamine D4.4": {"molecular_target": "Dopamine D4.4 (Homo sapiens, UniProt P21917)", "assay": "LeadProfilingScreen: Dopamine D4.4", "format": "binding"}, "CYP 3A4": {"molecular_target": "T1, CYP 3A4 (Homo sapiens, UniProt P08684)", "T1 construct": "host or cells: baculovirus-infected insect cells (supersomes)", "assay": "Cytochrome P450 testing, CYP 3A4", "format": "in vitro ADME", "settings": "testosterone 6-hydroxylation; read-out: Concentration of inhibition (IC50), CYP 3A4", "from_the_text": "Cytochrome P450 testing of CN016\nThe effects of CN016 on the activity of six specific human liver cytochrome P450 isozymes (CYP 1A2, 2C9, 2C19, 2D6, 2E1, 3A4) expressed in baculovirus-infected insect cell supersomes were studied. The reactions used to measure the activity of these enzymes were phenacetin O-deethylation (1A2), diclofenac 4-hydroxylation (2C9), mephenytoin 4-hydroxylation (2C19), dextromethorphan O-demethylation (2D6), chlorzoxazone 6-hydroxylation (2E1) and testosterone 6-hydroxylation (3A4).\nFurafylline, sulfaphenazole, tranylcypromine, quinidine, diethyldithiocarbamate and azamulin were used as reference inhibitors of these enzymes. Incubation mixtures containing no CN016 or reference inhibitors were used as controls. The tested result […]\nTable S4. Result of Cytochrome P450 testing of CN016"}, "[2]": {"molecular_target": "Epidermal Growth Factor (EGF) (Homo sapiens, UniProt P00533)", "assay": "LeadProfilingScreen: Epidermal Growth Factor (EGF)", "format": "binding"}, "[3]": {"assay": "Pharmacokinetics after intravenous injection", "format": "in vivo", "settings": "male, mouse, plasma, 5 mg/kg IV, ICR mice, mean ± SD (n = 3)", "experimental": "Male ICR mice weighed (29–33 g) were obtained from BioLASCO (Taiwan Co., Ltd., Ilan, Taiwan). The animal studies were performed according to NHRI institutional animal care and committee-approved procedures. Food and water were available ad libitum throughout the experiment. A single 5.0 mg/kg dose of CN016 was dissolved in normal saline and was separately administered to mice intravenously. The groups consisted of three mice for each time point. At times 0.03, 0.08, 0.25, 0.5, 1, 2, 4, 6, 8, 16, and 24 h after dosing, blood was collected from groups of three mice at each time point by cardiac puncture. Plasma was separated from blood and stored in a freezer (−80 °C) before LC/MS/MS analysis. In addition, pharmacokinetic analysis of CN016 following intraperitoneal administration (IP, 5 mg/kg) is provided in Figure S2 (Supporting Information)."}, "[4]": {"system": "Calcium Channel L-Type, Benzothiazepine", "assay": "LeadProfilingScreen: Calcium Channel L-Type, Benzothiazepine", "format": "binding, rat", "settings": "10 μM"}, "Cannabinoid CB1": {"molecular_target": "Cannabinoid CB1 (Homo sapiens, UniProt P21554)", "assay": "LeadProfilingScreen: Cannabinoid CB1", "format": "binding"}, "[5]": {"molecular_target": "Nicotinic Acetylcholine α1, Bungarotoxin (Homo sapiens, UniProt P02708+P07510+Q07001)", "format": "binding", "settings": "10 μM"}, "Histamine H3": {"molecular_target": "Histamine H3 (Homo sapiens, UniProt Q9Y5N1)", "assay": "LeadProfilingScreen: Histamine H3", "format": "binding"}, "Histamine H1": {"molecular_target": "Histamine H1 (Homo sapiens, UniProt P35367)", "assay": "LeadProfilingScreen: Histamine H1", "format": "binding"}, "[6]": {"molecular_target": "Transporter, Norepinephrine (NET) (Homo sapiens, UniProt P23975)", "assay": "LeadProfilingScreen: Transporter, Norepinephrine (NET)", "format": "binding"}, "C57BL/6 mice": {"system": "C57BL/6 mice", "assay": "Rotarod performance test (motor coordination)", "format": "in vivo, mouse", "settings": "pretreated CN016 + paclitaxel", "experimental": "(§1) Three behavioral models of paclitaxel-induced neuropathy were used to verify the neuroprotective effect of CN016. Namely, thermal and mechanical nociceptive reactions described below were evaluated by tail immersion and von Frey filament tests, respectively, and motor coordination was assessed with the rotarod performance test (Supporting Information, Figure S1A,B). To mimic the clinical therapeutic regimen, CN016 (5, 10 and 20 mg/kg) was administrated to 7-week-old female C57BL/6 mice by intraperitoneal injection (IP) 1 h prior to each injection of paclitaxel (4.5 mg/kg) on four alternate days (days 1, 3, 5, and 7). Each test’s basal level was recorded before treatment, and additional sessions of behavior tests were performed weekly for five weeks (Figure 4A).\n(§2) The baseline of every neurological behavior test was measured in 6-week-old C57BL/6J female mice prior to treatment. […] Mechanical hyperalgesia was evaluated by using von Frey filament (#2390, IITC Inc., USA), thermal sensitivity was determined by the tail immersion assay (water temperature: 48–49 °C), and motor coordination was assessed by rotarod (#7750, Ugo Basile Biological Research Apparatus, Italy). After the first drug implantation, the body weight was recorded every 6 days throughout the entire experiment."}, "Glutamate, NMDA, Agonism": {"system": "Glutamate, NMDA, Agonism", "assay": "LeadProfilingScreen: Glutamate, NMDA, Agonism", "format": "binding, rat", "settings": "10 μM"}, "Nicotinic Acetylcholine": {"system": "Nicotinic Acetylcholine", "assay": "67 off-target study: Nicotinic Acetylcholine (as named in Table S5)", "format": "binding", "settings": "10 μM; item as named in Table S5"}, "Rolipram": {"system": "Rolipram", "assay": "LeadProfilingScreen: Rolipram", "format": "binding, rat", "settings": "10 μM"}, "Glutamate, Kainate": {"system": "Glutamate, Kainate", "assay": "LeadProfilingScreen: Glutamate, Kainate", "format": "binding, rat", "settings": "10 μM"}, "[7]": {"system": "paclitaxel-induced neuropathy in C57BL/6 mice", "assay": "von Frey filament test (mechanical) in paclitaxel-induced neuropathy", "format": "in vivo, mouse", "experimental": "as §1, §2"}, "Sodium Channel, Site 2": {"system": "Sodium Channel, Site 2", "assay": "LeadProfilingScreen: Sodium Channel, Site 2", "format": "binding, rat", "settings": "10 μM"}, "GABAA, Muscimol, Central": {"system": "GABAA, Muscimol, Central", "assay": "LeadProfilingScreen: GABAA, Muscimol, Central", "format": "binding, rat", "settings": "10 μM"}, "Opiate µ (OP3, MOP)": {"molecular_target": "Opiate µ (OP3, MOP) (Homo sapiens, UniProt P35372)", "assay": "LeadProfilingScreen: Opiate µ (OP3, MOP)", "format": "binding"}, "Adrenergic α2A": {"molecular_target": "Adrenergic α2A (Homo sapiens, UniProt P08913)", "assay": "LeadProfilingScreen: Adrenergic α2A", "format": "binding"}, "[8]": {"system": "Calcium Channel L-Type, Dihydropyridine", "assay": "LeadProfilingScreen: Calcium Channel L-Type, Dihydropyridine", "format": "binding, rat", "settings": "10 μM"}, "Adenosine A1": {"molecular_target": "Adenosine A1 (Homo sapiens, UniProt P30542)", "assay": "LeadProfilingScreen: Adenosine A1", "format": "binding"}}, "note": "Where a name gives a salt, the structure may show the parent alone. Read-outs that look alike come from different tables or passages of the source.", "data": [{"compound": "O=P(O)(O)CCN1CCC(Nc2cc(N3CCOCC3)nc(NCc3cn(CCCO)nn3)n2)CC1", "note": "[CN016, {2-[4-(2-{[1-(3-Hydroxy-propyl)-1H-[1,2,3]triazol-4-ylmethyl]-amino}-6-morpholin-4-yl-pyrimidin-4-ylamino)-piperidin-1-yl]-ethyl}-phosphonic Acid Hydrobromide Salt]", "values": [{"measurement": "inhibition at 10 µM", "setting": "[1]", "result": -8, "unit": "%"}, {"measurement": "inhibition at 10 µM", "setting": "Interleukin IL-1 R1", "result": -3, "unit": "%"}, {"measurement": "Inhibition (%), Imidazoline I2, Central", "setting": "Imidazoline I2, Central", "result": -5, "unit": "%"}, {"measurement": "inhibition at 10 µM", "setting": "Dopamine D4.4", "result": 12, "unit": "%"}, {"measurement": "IC50", "setting": "CYP 3A4", "result": "> 100", "unit": "µM"}, {"measurement": "inhibition at 10 µM", "setting": "[2]", "result": -1, "unit": "%"}, {"measurement": "AUC(0-t) at 24 h", "setting": "[3]", "result": "6980 ± 1850", "unit": "ng·h/mL"}, {"measurement": "clearance at 24 h", "setting": "[3]", "result": "12.8 ± 2.9", "unit": "mL/min/kg"}, {"measurement": "half-life at 24 h", "setting": "[3]", "result": "768 ± 204", "unit": "min"}, {"measurement": "Vd at 24 h", "setting": "[3]; read-out: Vss", "result": "0.8 ± 0.5", "unit": "L/kg"}, {"measurement": "Inhibition (%), Calcium Channel L-Type, Benzothiazepine", "setting": "[4]", "result": -13, "unit": "%"}, {"measurement": "inhibition at 10 µM", "setting": "Cannabinoid CB1", "result": -5, "unit": "%"}, {"measurement": "Inhibition (%), Nicotinic Acetylcholine α1, Bungarotoxin", "setting": "[5]", "result": 7, "unit": "%"}, {"measurement": "Inhibition (%), Nicotinic Acetylcholine α1, Bungarotoxin", "setting": "[5]; listed as CN168, 10 µM", "result": -6, "unit": "%"}, {"measurement": "inhibition at 10 µM", "setting": "Histamine H3", "result": 2, "unit": "%"}, {"measurement": "inhibition at 10 µM", "setting": "Histamine H1", "result": 19, "unit": "%"}, {"measurement": "inhibition at 10 µM", "setting": "[6]", "result": -1, "unit": "%"}, {"measurement": "motor coordination (rotarod test)", "setting": "C57BL/6 mice", "result": "neither paclitaxel treatment nor pretreated CN016 affected motor coordination"}, {"measurement": "Inhibition (%), Glutamate, NMDA, Agonism", "setting": "Glutamate, NMDA, Agonism", "result": -3, "unit": "%"}, {"measurement": "Inhibition (%), Nicotinic Acetylcholine", "setting": "Nicotinic Acetylcholine", "result": -6, "unit": "%"}, {"measurement": "Inhibition (%), Rolipram", "setting": "Rolipram", "result": 6, "unit": "%"}, {"measurement": "Inhibition (%), Glutamate, Kainate", "setting": "Glutamate, Kainate", "result": 0, "unit": "%"}, {"measurement": "alleviation of mechanical allodynia (von Frey)", "setting": "[7]; CN016 5 mg/kg IP 1 h prior to paclitaxel 4.5 mg/kg", "result": "only moderately alleviated"}, {"measurement": "alleviation of paclitaxel-induced mechanical allodynia (von Frey)", "setting": "[7]; CN016 10 or 20 mg/kg IP 1 h prior to paclitaxel 4.5 mg/kg", "result": "able to alleviate"}, {"measurement": "Inhibition (%), Sodium Channel, Site 2", "setting": "Sodium Channel, Site 2", "result": -1, "unit": "%"}, {"measurement": "Inhibition (%), GABAA, Muscimol, Central", "setting": "GABAA, Muscimol, Central", "result": 5, "unit": "%"}, {"measurement": "inhibition at 10 µM", "setting": "Opiate µ (OP3, MOP)", "result": 1, "unit": "%"}, {"measurement": "inhibition at 10 µM", "setting": "Adrenergic α2A", "result": -4, "unit": "%"}, {"measurement": "Inhibition (%), Calcium Channel L-Type, Dihydropyridine", "setting": "[8]", "result": 14, "unit": "%"}, {"measurement": "inhibition at 10 µM", "setting": "Adenosine A1", "result": -9, "unit": "%"}]}]}
